From patent US6627628B1, “Substituted 4-amino-2-aryl-cyclopenta[d]pyrimidines, their production and use and pharmaceutical preparations containing same” (Aventis Pharma Deutschland, GmbH, priority 1998, dated 2003)

Biological target: T1, soluble guanylate cyclase (sGC) (Bos taurus, UniProt P16068+P19687)
T1 construct: The sGC employed had been isolated from bovine lung; from tissue; host or cells: bovine lung
T1 sequence (P19687 1-691): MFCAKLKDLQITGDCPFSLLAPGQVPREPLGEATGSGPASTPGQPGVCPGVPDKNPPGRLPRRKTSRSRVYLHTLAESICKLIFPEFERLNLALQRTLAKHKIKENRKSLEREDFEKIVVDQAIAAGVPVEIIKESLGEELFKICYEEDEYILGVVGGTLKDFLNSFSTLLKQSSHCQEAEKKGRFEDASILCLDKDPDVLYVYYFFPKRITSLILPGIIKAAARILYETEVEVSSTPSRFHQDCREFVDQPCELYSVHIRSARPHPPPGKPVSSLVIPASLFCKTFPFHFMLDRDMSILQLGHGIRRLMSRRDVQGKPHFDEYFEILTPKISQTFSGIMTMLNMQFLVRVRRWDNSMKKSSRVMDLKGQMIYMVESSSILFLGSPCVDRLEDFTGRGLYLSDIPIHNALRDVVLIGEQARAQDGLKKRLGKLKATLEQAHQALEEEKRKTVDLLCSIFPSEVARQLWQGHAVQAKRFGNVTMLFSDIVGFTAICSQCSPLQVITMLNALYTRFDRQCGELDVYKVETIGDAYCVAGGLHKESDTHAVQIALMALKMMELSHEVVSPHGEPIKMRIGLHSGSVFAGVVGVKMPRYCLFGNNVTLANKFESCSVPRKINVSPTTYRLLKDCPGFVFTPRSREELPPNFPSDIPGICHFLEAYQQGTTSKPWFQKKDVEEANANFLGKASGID
T1 sequence (P16068 1-619): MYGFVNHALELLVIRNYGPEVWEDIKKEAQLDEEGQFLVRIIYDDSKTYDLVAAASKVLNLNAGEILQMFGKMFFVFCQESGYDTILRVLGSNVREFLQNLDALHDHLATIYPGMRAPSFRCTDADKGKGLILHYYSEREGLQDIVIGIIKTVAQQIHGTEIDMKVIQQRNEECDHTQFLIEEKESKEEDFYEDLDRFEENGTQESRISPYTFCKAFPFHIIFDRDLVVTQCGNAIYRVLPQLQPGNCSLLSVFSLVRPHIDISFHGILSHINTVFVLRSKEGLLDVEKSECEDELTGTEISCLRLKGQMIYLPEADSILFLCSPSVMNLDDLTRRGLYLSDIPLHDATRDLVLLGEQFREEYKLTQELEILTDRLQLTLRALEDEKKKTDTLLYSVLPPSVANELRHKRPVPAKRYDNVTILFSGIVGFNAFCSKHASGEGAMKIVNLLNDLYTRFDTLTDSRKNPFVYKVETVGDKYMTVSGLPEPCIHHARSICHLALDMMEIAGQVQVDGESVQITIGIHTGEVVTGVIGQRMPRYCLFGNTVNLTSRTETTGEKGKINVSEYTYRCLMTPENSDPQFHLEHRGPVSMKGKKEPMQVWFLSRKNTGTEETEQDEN
Experiment: Activation of soluble guanylate cyclase (cGMP enzyme immunoassay)
Assay type: biochemical
Conditions: sGC isolated from bovine lung; test substance 50 μM; 5% DMSO; 37° C., 15 to 20 minutes; [cGMP]test substance/[cGMP]control (basal enzyme activity)
Experimental: Activation of Soluble Guanylate Cyclase
The activation of soluble guanylate cyclase (sGC), which catalyzes the conversion of guanosine triphosphate (GTP) to cyclic guanosine monophosphate (cGMP) and pyrophosphate, by the compounds according to the invention was quantified with the aid of an enzyme immunoassay (EIA) from Amersham. For this, the test substances were first incubated with sGC in microtiter plates and then the quantity of the resulting cGMP was determined.
The test solutions (100 μl per well) contained 50 mM triethanolamine (TEA) buffer (pH 7.5), 3 mM MgCl2, 3 mM reduced glutathione (GSH), 0.1 mM GTP, 1 mM 3-isobutyl-1-methylxanthine (IBMX), suitably diluted enzyme solution and the test substance or, in the control experiments, solvent. The test substances were dissolved in dimethyl sulfoxide (DMSO) and the solution was diluted with DMSO/water such that the final concentration c of test substance in the test batch was 50 μM. The DMSO concentration in the test batch was 5% (v/v). The reaction was started by addition of the sGC. […] The absorption of the samples was measured at 450 nm (reference wavelength 620 nm) in a microtiter plate reading apparatus. The cGMP concentration was determined by means of a calibration curve, which was obtained under the same experimental conditions. […]

2-(4-Methylphenyl)-4-((3-pyridylmethyl)amino-6,7-dihydro-5H-cyclopenta[d]-pyrimidine [Example 44]
n-fold stimulation at c = 50 μM: 7 fold
